Molecular target: AktK (Homo sapiens, UniProt P31749)
Assay: Luciferase-coupled chemiluminescence kinase assay (ATP consumption)
Type: biochemical
Settings: Table 1; class symbols per key; read-out: AKT-1 IC50
Procedure: One measure of inhibition is Ki. […] The Ki for a compound is determined from the IC50 based on three assumptions. First, only one compound molecule binds to the enzyme and there is no cooperativity. […] Third, the enzymatic rate of the enzyme-inhibitor complex is zero. The rate data (i.e. compound concentration) are fitted to the equation: […]
Luciferase-Coupled Chemiluminescence Assay Protocol
Kinase activity is measured as the percent of ATP consumed following the kinase reaction using luciferase-luciferin-coupled chemiluminescence. Reactions were conducted in 384-well white, medium binding microtiter plates (Greiner). Kinase reactions were initiated by combining test compounds, ATP and kinase in a 20 uL volume. The reaction mixture was incubated at ambient temperature for 3 hrs. For p70S6K and/or AktK, 2.5-5 nM of the enzyme was pre-incubated with compound in 20 mM Tris pH 7.5, 10 mM MgCl2, 0.03% TX-100, and 1 mM DTT for 30 minutes at room temperature. Following the kinase reaction, a 20 μL aliquot of luciferase-luciferin mix was added and the chemiluminescence signal measured using a Victor^2 plate reader (Perkin Elmer). […] Total ATP consumption was limited to 25-60% and the IC50 values correlate well with those determined by radiometric assays.

Chains of the proteins cited; added tags and fusions are not shown. Lines headed by an entry give the natural chain unless they say otherwise; changes in a name come on top.
UniProt P31749: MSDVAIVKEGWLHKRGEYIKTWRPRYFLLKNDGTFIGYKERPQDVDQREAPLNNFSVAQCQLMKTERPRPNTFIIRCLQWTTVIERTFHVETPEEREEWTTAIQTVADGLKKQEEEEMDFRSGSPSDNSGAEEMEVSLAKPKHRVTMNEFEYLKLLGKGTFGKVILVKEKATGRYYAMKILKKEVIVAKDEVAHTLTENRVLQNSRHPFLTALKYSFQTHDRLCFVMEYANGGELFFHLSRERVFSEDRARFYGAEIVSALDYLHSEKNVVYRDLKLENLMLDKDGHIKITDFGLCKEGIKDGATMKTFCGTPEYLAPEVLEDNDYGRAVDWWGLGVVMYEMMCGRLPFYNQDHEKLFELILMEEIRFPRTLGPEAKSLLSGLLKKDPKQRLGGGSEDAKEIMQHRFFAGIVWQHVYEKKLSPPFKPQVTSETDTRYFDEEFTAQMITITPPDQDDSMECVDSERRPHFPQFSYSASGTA

For “3-[4-(3-Bromo-1H-pyrazolo[3,4-d]pyrimidin-4-yl)piperazin-1-yl]-4-methyl-N-phenyl-5-[(2-pyrrolidin-1-ylethyl)amino]benzamide [Example 45]”, the IC50 was 100 to 1000 nM.

— patent publication US8076338B2, “Kinase modulators and methods of use” (Exelixis, Inc., priority 2004, dated 2011)
